The record followed here is patent publication US10202365B2, “2-(pyridin-3-yl)-pyrimidine derivatives as RET inhibitors” (BLUEPRINT MEDICINES CORPORATION, priority 2015, dated 2019).

Chains of the proteins cited; added tags and fusions are not shown. Residues count along the entry.
UniProt P07949, 29-1114 V804L: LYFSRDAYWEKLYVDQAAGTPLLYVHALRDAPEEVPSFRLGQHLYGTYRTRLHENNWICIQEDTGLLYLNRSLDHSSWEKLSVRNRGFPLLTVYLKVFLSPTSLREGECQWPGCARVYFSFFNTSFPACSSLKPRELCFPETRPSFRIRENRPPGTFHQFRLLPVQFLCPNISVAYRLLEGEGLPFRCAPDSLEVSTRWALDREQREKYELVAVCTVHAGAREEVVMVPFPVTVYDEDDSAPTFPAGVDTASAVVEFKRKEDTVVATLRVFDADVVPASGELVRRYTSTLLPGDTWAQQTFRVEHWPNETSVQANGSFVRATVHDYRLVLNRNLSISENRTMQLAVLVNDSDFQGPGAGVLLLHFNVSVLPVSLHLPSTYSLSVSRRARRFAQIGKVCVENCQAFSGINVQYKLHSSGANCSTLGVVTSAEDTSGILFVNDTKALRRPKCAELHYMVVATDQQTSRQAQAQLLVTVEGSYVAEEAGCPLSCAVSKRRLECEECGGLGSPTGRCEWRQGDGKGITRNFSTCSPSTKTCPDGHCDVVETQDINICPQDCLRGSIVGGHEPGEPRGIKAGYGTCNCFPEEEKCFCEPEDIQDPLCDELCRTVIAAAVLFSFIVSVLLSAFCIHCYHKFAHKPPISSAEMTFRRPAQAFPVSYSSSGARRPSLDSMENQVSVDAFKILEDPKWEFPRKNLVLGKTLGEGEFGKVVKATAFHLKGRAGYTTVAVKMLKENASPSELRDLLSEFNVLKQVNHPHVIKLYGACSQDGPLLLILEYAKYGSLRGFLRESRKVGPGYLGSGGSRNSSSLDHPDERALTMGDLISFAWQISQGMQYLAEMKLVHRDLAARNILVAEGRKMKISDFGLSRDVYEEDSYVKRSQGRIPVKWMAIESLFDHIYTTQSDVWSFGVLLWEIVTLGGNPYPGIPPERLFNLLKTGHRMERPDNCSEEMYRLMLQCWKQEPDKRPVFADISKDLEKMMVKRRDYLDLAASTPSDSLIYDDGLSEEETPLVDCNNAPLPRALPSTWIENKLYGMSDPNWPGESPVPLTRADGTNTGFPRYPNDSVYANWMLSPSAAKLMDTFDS

The target of the first test is RET V804L (Homo sapiens (Human), UniProt P07949, V804L). It is filed as biochemical. The following applies: 10 μM ATP, 25° C., 120 minutes; read-out: V804L Mutant.
For `Cc1cc(Nc2cc(C)[nH]n2)nc(-c2ccc(C(=O)NCc3cncs3)nc2)n1` [Compound 3], the IC50 was more than 100 nM. Same read-out and setting: as for `Cc1cc(Nc2cc(C)[nH]n2)nc(-c2ccc(C(=O)N[C@H](C)c3ccccc3)nc2)n1` [Compound 6], the figure is 10 to 100 nM; as for `Cc1cc(Nc2cc(C)[nH]n2)nc(-c2ccc(C(=O)NCc3cccc(F)c3)nc2)n1` [Compound 8], 10 to 100 nM; as for `Cc1cc(Nc2cc(C)[nH]n2)nc(-c2ccc(C(=O)NCc3ccc(Cl)cc3)nc2)n1` [Compound 11], less than 10 nM.

Regarding `Cc1cc(Nc2cc(C)[nH]n2)nc(-c2cnc(C(=O)N[C@@H](C)c3ccc(-n4cccn4)nc3)c(C)c2)n1` [Compound 23], the IC50 is less than 10 nM.

As for `Cc1cc(Nc2cc(C)[nH]n2)nc(-c2ccc(C(=O)NCc3ccc(-n4nc(C)cc4C)nc3)nc2)n1` [Compound 24], the IC50 is less than 10 nM. `Cc1cc(Nc2cc(C)[nH]n2)nc(-c2ccc(C(=O)NCc3ccc(-n4ccc(C5CC5)n4)nc3)nc2)n1` [Compound 26]: the IC50 is less than 10 nM. Still for that read-out and setting: the figure for `Cc1cc(Nc2cc(C)[nH]n2)nc(-c2ccc(C(=O)NCc3ccc(-n4cc(C5CC5)cn4)nc3)nc2)n1` [Compound 27] is more than 100 nM; for `Cc1cc(Nc2cc(C)[nH]n2)nc(-c2ccc(C(=O)NCc3ccc(-n4cc(CCO)cn4)nc3)nc2)n1` [Compound 28] it is less than 10 nM; for `Cc1cc(Nc2cc(C)[nH]n2)nc(-c2cnc(C(=O)N[C@@H](C)c3ccc(-n4cc(F)cn4)nc3)c(C)c2)n1` [Compound 29, (S)—N-(1-(6-(4-fluoro-1H-pyrazol-1-yl)pyridin-3-yl)ethyl)-3-methyl-5-(4-methyl-6-((5-methyl-1H-pyrazol-3-yl)amino)pyrimidin-2-yl)picolinamide] it is less than 10 nM. As for `Cc1cc(Nc2cc(C)[nH]n2)nc(-c2cnc(C(=O)N[C@@H](C)c3ccc(-n4cc(F)cn4)nc3)c(F)c2)n1` [Compound 30, (S)-3-fluoro-N-(1-(6-(4-fluoro-1H-pyrazol-1-yl)pyridin-3-yl)ethyl)-5-(4-methyl-6-((5-methyl-1H-pyrazol-3-yl)amino)pyrimidin-2-yl)picolinamide], the IC50 is less than 10 nM.

Take `CC[C@@H](NC(=O)c1ccc(-c2nc(C)cc(Nc3cc(C)[nH]n3)n2)cn1)c1ccc(-n2cc(F)cn2)nc1` [Compound 34]: the IC50 was more than 100 nM.

Staying with this test, now noted: read-out: V804L Mutant.
In the case of `Cc1cnn(-c2ccc(CNC(=O)c3ccc(-c4nc(C)cc(Nc5cc(C)[nH]n5)n4)cn3)cn2)c1` [Compound 18], the IC50 is less than 10 nM. Regarding `Cc1cc(Nc2cc(C)[nH]n2)nc(-c2cnc(C(=O)NCc3ccc(-n4cccn4)nc3)c(C)c2)n1` [Compound 19], the IC50 was less than 10 nM. Regarding `Cc1cc(Nc2cc(C)[nH]n2)nc(-c2ccc(C(=O)NCc3cnc(-n4cc(F)cn4)cn3)nc2)n1` [Compound 21], the IC50 is less than 10 nM.
